Source: patent US6344564B1, “Fungicidal 2-imidazolin-5-ones and 2-imidazoline-5-thiones” (priority 1992, dated 2002)

tested on: Plasmopara viticola; assay: In vivo test on Plasmopara viticola (grape downy mildew); details: in Vitis vinifera, 168 h, dose of 1 g/l, vine cuttings (Vitis vinifera, Chardonnay) sprayed 24 hours before infecting, reading 7 days after infecting, read-out: protection

SMILES	pest or weed control at 1000 µg/mL [%]
CSC1=NC(C)(c2ccccc2)C(=O)N1Sc1ccccc1 (stereo not shown) [Compound 95, 4-phenyl-4-methyl-1-(phenylthio)-2-methylthio-2-imidazolin-5-one]	≥ 75
CSC1=NC2(CCc3ccccc32)C(=O)N1Nc1ccccc1 (stereo not shown) [Compound 98]	≥ 75
CC1=NC2(CCCc3ccccc32)C(=O)N1Nc1ccccc1 (stereo not shown) [Compound 227]	≥ 75
CC1=NC2(CCc3ccccc32)C(=O)N1Nc1ccccc1 (stereo not shown) [Compound 228]	≥ 75
CSC1=NC2(CCCc3ccccc32)C(=O)N1Nc1ccccc1 (stereo not shown) [Compound 97]	≥ 75
CSC1=NC2(CCCc3ccccc32)C(=O)N1Nc1ccccc1Cl (stereo not shown) [Compound 104]	≥ 75
CSC1=NC(C)(c2ccccc2)C(=O)N1OCc1ccccc1 (stereo not shown) [Compound 56, 4-phenyl-4-methyl-1-(benzyloxy)-2-methylthio-2-imidazolin-5-one]	≥ 75
